Where “and” joins values, the source holds several entries; their conditions need not be identical. Equal values may be shown once. Read-outs that look alike come from different tables or passages of the source.
Biological target: T1, Arabidopsis thaliana allene oxide synthase CYP74A1 (AOS), recombinant, C-terminal 4×His-tag, lacking the 32 N-terminal amino acid chloroplast targeting sequence (Arabidopsis thaliana, UniProt Q96242)
T1 sequence (Q96242 with tags, fused parts or gaps): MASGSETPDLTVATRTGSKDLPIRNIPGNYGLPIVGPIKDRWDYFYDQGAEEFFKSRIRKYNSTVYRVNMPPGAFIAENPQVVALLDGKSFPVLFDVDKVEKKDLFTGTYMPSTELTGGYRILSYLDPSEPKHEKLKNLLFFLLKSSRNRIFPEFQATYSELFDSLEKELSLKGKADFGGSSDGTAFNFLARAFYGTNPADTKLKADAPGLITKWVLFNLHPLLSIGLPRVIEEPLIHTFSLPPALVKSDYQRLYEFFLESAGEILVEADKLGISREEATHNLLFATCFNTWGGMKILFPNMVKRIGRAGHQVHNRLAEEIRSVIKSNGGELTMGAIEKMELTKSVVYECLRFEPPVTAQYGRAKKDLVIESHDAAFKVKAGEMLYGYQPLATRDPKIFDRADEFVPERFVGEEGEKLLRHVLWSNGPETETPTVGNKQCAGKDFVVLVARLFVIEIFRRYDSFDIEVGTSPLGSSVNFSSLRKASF
Settings: for kcat: pH 6.5, 25° C.; for fold increase in kcat/Km after reactivation: reactivated with Emulphogene micelles vs detergent-free; for Km, fold increase versus 13-HPOTE / kcat as % of kcat with 13-HPOTE: reactivated

[1] = Reactivated with 50 μM Emulphogene micelle

| Compound | kcat/Km (Detergent-free) [M⁻¹ s⁻¹] | kcat (Detergent-free) [s⁻¹] | Substrate specificity (% 13-HPOTE), from kcat/Km [1] [%] | kcat/Km [1] [M⁻¹ s⁻¹] | kcat [1] [s⁻¹] | fold decrease in affinity (Km higher) after reactivation (reactivated vs detergent-free) [fold] | kcat, fold increase after reactivation (reactivated vs detergent-free) [fold] | fold increase in kcat/Km after reactivation [fold] | Substrate specificity (% 13-HPOTE), from kcat/Km (Detergent-free) [%] | Km, fold increase versus 13-HPOTE [fold] | kcat as % of kcat with 13-HPOTE [%] | fold increase in kcat/Km after reactivation (listed as 13-HPOTE) | kcat/Km (with detergent micelles) |
| --- | --- | --- | --- | --- | --- | --- | --- | --- | --- | --- | --- | --- | --- |
| CCCCC[C@@H](/C=C/C=C\CCCCCCCC(=O)O)OO [13α-HPOD, 13-S-hydroperoxyoctadeca-9Z, 11 E-dienoic acid] | 900000 | 4.2 ± 0.2 | 14 | 8.1e+06 | 226 ± 9 | ~6 | 54 | 10 | – | – | – | – | – |
| CC/C=C\C/C=C\C=C\[C@H](CCCCCCCC(=O)O)OO [9α-HPOT, 9-S-hydroperoxy-10E,12Z,15Z-octadecatrienoic acid] | 300000 | 3.2 ± 0.1 | 0.3 | 200000 | 11 ± 1 | – | – | – | 25 | 6 | 2 | – | – |
| CCCCC/C=C\C=C\[C@H](CCCCCCCC(=O)O)OO [9α-HPOD] | 800000 | 4.9 ± 0.4 | 0.3 | 200000 | 12 ± 1 | – | – | – | – | 6 | 2 | – | – |
| CC/C=C\C[C@@H](/C=C/C=C\CCCCCCCC(=O)O)OO [13α-HPOT, 13-S-hydroperoxy-9Z,11E,15Z-octadecatrienoic acid] | 1.2e+06 | 3.3 ± 0.1 | 100 | 5.87e+07 | 528 ± 15 | – | 160 | – | 100 | – | – | 50 fold and 48 fold | up to 5.9×10^7 M^−1.s^−1 |
